This is a selection; strong and weak results do not stand in their true shares. The source made the active and inactive calls.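 How the source made its calls: active means every replicate shows inhibition of at least 40%; inconclusive means mean inhibition at least 40% but some replicate below; inactive means the rest.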

This experiment in a line: inhibitors of PGC1a acetylation signal, primary screen, cell-based, U2OS, AlphaScreen, inhibitor mode (AID 651687).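 Further: 0% = neutral control wells and 100% = positive control wells.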 Particulars: AlphaScreen anti-acetyl-lysine, at 15.6 µM, stronger effect = higher value, with virally co-expressed GCN5 acetyltransferase.
As for `Cc1cc(=O)[nH]c(N[N+](=O)[O-])n1`, the inhibition (as a rule, the drop in the measured response relative to a control, in per cent) was inactive: 8.62%.
Take `O=C(OC1CN2CCC1CC2)C12CC3CC(CC(C3)C1)C2` (stereo not drawn): the inhibition was inactive: -14.2%.
Under `COc1cc(I)ccc1[As](=O)(O)O` stands inactive: 2.15%; under `O=P1(N(CCCl)CCCl)Nc2ccccc2N1`, inactive: -2.46%; under `COc1ccc(CN2/C(=N\P(=O)(Oc3ccccc3)Oc3ccccc3)Cc3ccccc3C2C2CC2)cc1` (stereo not drawn), inactive: -1.04%.
Take `COc1ccc(N/C(=N/P(=O)(N2CCOCC2)N2CCOCC2)N2CCOCC2)cc1`: the inhibition is inactive: -8.39%.
Take `O=[N+]([O-])c1cc(Oc2ccc([N+](=O)[O-])cc2C(F)(F)F)cc([N+](=O)[O-])c1`: the inhibition was inactive: 0.951%.
As to `COc1cc(C(=O)NCC2(N3CCOCC3)CCCCC2)ccc1OCC(C)C`, the inhibition is inactive: -6.38%.
Consider `O=[N+]([O-])c1ccc(-c2cc([N+](=O)[O-])c(O)c([N+](=O)[O-])c2)cc1`, for which the inhibition was inactive: -7.98%.
The value for `O=[As](O)(c1ccc(O)cc1)c1ccccc1O` was inactive: -0.713%.
As for `Cc1ccc(OP(=O)(Nc2ccc([N+](=O)[O-])cn2)Oc2ccc(C)cc2)cc1`, the inhibition is inactive: 4.45%.
Take `CC(C)c1ccc(OP(=O)(Nc2ccccn2)Oc2ccccc2F)cc1` (stereo not drawn): the inhibition is inactive: 16.5%.
Regarding `COC(=O)C1(C)COP(=O)(N2CCCCCC2)OC1` (stereo not drawn), the inhibition was inactive: 3.76%.
Regarding `ClCCSc1nnc(-c2cccnc2)o1`, the inhibition was inactive: 4.29%.
As to `CCN(CC)C(=S)SC(NC=O)C(Cl)(Cl)Cl` (stereo not drawn), the inhibition is inactive: -1.99%.
Under `O=C(OC1CN2CCC1CC2)c1cccc2[nH]cnc12` (stereo not drawn) stands inactive: 6.1%.
As to `CC(C)NC(=O)NP(=O)(Oc1ccccc1)Oc1ccccc1`, the inhibition is inactive: -7.45%.
Take `O=C(O)C(O)c1ccc(N(CCCl)CCCl)cc1` (stereo not drawn): the inhibition was inactive: 11.6%.
For the compound `CCOC(=O)Nc1ccc([As](=O)(O)O)c(O)c1`, the inhibition was inactive: 9.69%.
For the compound `COP(=O)(OC)N1CC1c1ccccc1` (stereo not drawn), the inhibition was inactive: 9.62%.
Turning to `O=P(Nc1ccccn1)(c1cccc2ccccc12)c1cccc2ccccc12`, the inhibition is inactive: 0.838%.
As to `COP1(=S)c2c(C)nn(CCC#N)c2N=C(c2ccc(F)cc2)N1C` (stereo not drawn), the inhibition is inactive: -1.27%.
Under `O=C(Nc1ccncc1[N+](=O)[O-])c1ccc([N+](=O)[O-])cc1[N+](=O)[O-]` stands inactive: 13.1%.
Take `O=C(COc1ccccc1)OC1CN2CCC1CC2` (stereo not drawn): the inhibition was inactive: 0.538%.
Turning to `O=C(O)C(=O)c1ccc(N(CCCl)CCCl)cc1`, the inhibition is inactive: -2.72%.
`CCOC(=O)c1ccc(NC(=O)C(C)(CCl)SC)cc1` (stereo not drawn): the inhibition is inactive: 8.58%.
The value for `CSc1ccc(Nc2c([N+](=O)[O-])cc([N+](=O)[O-])cc2[N+](=O)[O-])cc1` was inactive: 1.04%; that for `O=C(OC1CN2CCC1CC2)c1cccc([N+](=O)[O-])c1` (stereo not drawn) was inactive: 3.7%; that for `CCC(C)N(CC(C)C)C(=S)SC(NC(C)=O)C(Cl)(Cl)Cl` (stereo not drawn) was inactive: 7.39%.
With `CN(CCCl)Cc1cc(Cl)c(NC2=NCCN2)c(Cl)c1`, the inhibition was inactive: -7.43%.
For `O=P1(Nc2ccccn2)COc2ccccc2OC1`, the inhibition was inactive: -0.214%.
For `CC(C)(C)C(=O)NC(Sc1ncccn1)C(Cl)(Cl)Cl` (stereo not drawn), the inhibition was inactive: -1.27%.
For the compound `O=P1(N(CCCl)CCCl)NCCC(C(F)(F)F)O1` (stereo not drawn), the inhibition was inactive: 0.675%.
Consider `CC1(CBr)Cn2c(nc3ccccc3c2=O)S1` (stereo not drawn), for which the inhibition was inactive: -19.4%.
As for `CN(C(=O)Cc1ccc(Cl)c(Cl)c1)[C@@H]1CCCC[C@H]1N1CCCC1`, the inhibition is inactive: 8.54%.
The value for `CC(C)/C=N\N=C(\N)N[N+](=O)[O-]` was inactive: 3.42%; that for `Cc1ccc(C(=O)OC2CN3CCC2CC3)cc1` (stereo not drawn) was inactive: 6.61%; that for `CC1CCC(C(C)C)C(OP(=O)(Nc2ccccn2)c2ccccc2)C1` (stereo not drawn) was inactive: 2.16%.
Take `Cc1nn(-c2ccccc2)c2c1P(=O)(N1CCOCC1)N(C)C(c1ccccc1)=N2` (stereo not drawn): the inhibition was inactive: 7.13%.
As to `CCCC1OP(=O)(Nc2ccccc2)OCC1CC` (stereo not drawn), the inhibition was inactive: -4.31%.
In the case of `O=C(/C=C/c1ccccc1)OC1CN2CCC1CC2` (stereo not drawn), the inhibition was inactive: -1.73%.
Consider `CN(C)C1(CNC(=O)c2ccc(S(C)(=O)=O)cc2)CCCCC1`, for which the inhibition is inactive: 7.47%.
`O=P1(Nc2ncccn2)COc2ccccc2OC1`: the inhibition is inactive: 6.53%.
For the compound `Cc1ccc(S(=O)(=O)N(CCCN)CCCc2c(C)nc(N)[nH]c2=O)cc1`, the inhibition is inactive: -14.8%.
With `NS(=O)(=O)c1cccc(NC(=O)COC(=O)C(O)(c2ccccc2)c2ccccc2)c1`, the inhibition was inactive: 1.42%.
As for `O=P1(Nc2ccc(Br)cn2)COc2ccccc2OC1`, the inhibition is inactive: 1.28%.
Regarding `Cc1ccc(OCC(=O)OC2CN3CCC2CC3)cc1` (stereo not drawn), the inhibition is inactive: 0.232%.
Under `Nc1cccc([As](=O)(O)c2ccccc2)c1` stands inactive: -6.63%; under `CS(=O)(=O)c1cc([N+](=O)[O-])c2no[n+]([O-])c2c1`, inactive: -0.412%.
With `O=P(Nc1nccs1)(c1ccccc1)c1nc2ccccc2s1` (stereo not drawn), the inhibition is inactive: -1.49%.
For the compound `CCOP1(=S)c2c(C)nn(CCC#N)c2N=C(c2ccccc2F)N1C` (stereo not drawn), the inhibition was inactive: -1.04%.
Consider `Nc1ccccc1[As](=O)(O)c1ccccc1`, for which the inhibition was inactive: 5.3%.
As for `CN(C(=O)Cc1ccc(Cl)c(Cl)c1)[C@H]1CC[C@@]2(CCCO2)C[C@@H]1N1CCCC1`, the inhibition was inactive: -4.65%.
Under `CN(C)C(=O)c1cc([N+](=O)[O-])cc2c1-c1c(cc([N+](=O)[O-])cc1[N+](=O)[O-])C2=O` stands inactive: 31.8%; under `O=[N+]([O-])c1ccc2c(c1)nnn2O`, inactive: -0.111%.
For `CCOP1(=S)c2c(C)nn(CCC#N)c2N=C(c2ccc(F)cc2)N1C` (stereo not drawn), the inhibition was inactive: 36.9%.
On to `CN(C(=O)Cc1ccccc1)[C@@H]1CC[C@]2(CCCO2)C[C@H]1N1CCCC1`, for which the inhibition was inactive: -3.01%.
On to `COc1cc(C(=O)NCC2(N3CCOCC3)CCCCC2)cc(Cl)c1OC(C)C`, for which the inhibition is inactive: -5.64%.
Regarding `O=[As](O)(O)c1cccnc1`, the inhibition is inactive: -2.66%.
Take `O=C(OC1CN2CCC1CC2)c1ccc(Cl)cc1` (stereo not drawn): the inhibition is inactive: -4.75%.
For `O=[As](O)(c1cccc(O)c1)c1cccc(O)c1`, the inhibition was inactive: 5.66%.
As for `Cc1cccc(OCC(=O)OC2CN3CCC2CC3)c1` (stereo not drawn), the inhibition was inactive: -7.13%.
In the case of `Cc1ccc(NCCc2c([N+](=O)[O-])cc([N+](=O)[O-])cc2[N+](=O)[O-])cc1`, the inhibition was inactive: 9.3%.

The values are drawn from PubChem BioAssay AID651687 (Broad Institute, 2012).
